Measurements reported in PMC12503259, “Establishment of an in vivo analytical method for detecting total anti-UFH activity and pharmacokinetic study in PS and R15 in rats” (PLOS One, 2025).

Tests used:
[1] = test system: metallocarboxypeptidases; settings: cited from earlier work
Excerpt: Response: Thank you for your question. […] Because the article and thesis are in Chinese, we added the URL of article/ dissertation (in English) at the end of this response.

[2] = Stability in rat plasma after three freeze-thaw cycles; assay type: in vitro ADME; settings: three freeze (−80°C)-thaw (25°C) cycles; for Measured concentration after storage, Mean ± SD: n = 6
Procedure: (§1) Processing of Plasma Samples: 100 μL of the unknown plasma sample was added to 500 μL of 75% methanol (methanol: water = 75:25, v/v) and vortex-mixed for 5 seconds. The mixture was then centrifuged at 12,000 r/min for 10 minutes at 25°C. The supernatant (500 μL) was collected and dried under nitrogen at 60°C. Subsequently, UFH (0.14 U·mL^-1 for PS and 0.15 U·mL^-1 for R15; 120 μL) was added, and the mixture was vigorously shaken at room temperature for 10 minutes. The residual UFH content was measured using the Heparin Anti-FXa assay kit.
(§2) The detailed procedure is as follows: Accurately pipette 40 μL of the sample into a 96-well plate. Place the plate in a microplate shaker. Using a multichannel pipette, add 40 μL of reagent R1 and mix by shaking. Incubate at 37 °C for exactly 3 minutes (start timing upon addition of R1; at 50 seconds, begin shaking with the microplate shaker for 1 minute, then place the plate in the incubator). Remove the 96-well plate from the incubator and place it on the open microplate shaker. Using a multichannel pipette, add 40 μL of reagent R2 to each well and incubate at 37 °C for 6 minutes (after adding R2, at 3 minutes and 50 seconds, open the microplate shaker and shake for 4 minutes, then return the plate to the incubator). Remove the 96-well plate from the incubator and place it on the open microplate shaker. Quickly add 40 μL of reagent R3 using a multichannel pipette and shake until 9 minutes and 10 seconds. At 9 minutes and 30 seconds, add 80 μL of 20% acetic acid to each well to terminate the reaction. Measure the absorbance at 405 nm using a microplate reader (Multiskan FC, Thermo Fisher US).
Two concentration levels (low and high QC) were evaluated for validation of storage stability and freeze/thaw stability. Two concentration levels of PS and R15 (low and high QC) in blank rat plasma were prepared (n = 6), respectively. Samples in rats’ plasma were determined after storage at room temperature (25°C ± 1°C) for 30 min. […] Stock solution of PS and R15 were stored at 4°C for a week. All the samples mentioned above were processed by calibration curves with adequate QC samples diluted from newly prepared stock solution of PS and R15, followed by procedure of sample determination (see “Sample Preparation”), respectively.

[3] = Stability in rat plasma at room temperature for 30 min; assay type: in vitro ADME; settings: room temperature (25°C ± 1°C) for 30 min; for Measured concentration after storage, Mean ± SD: n = 6
Procedure: as §1, §2
(§3) Two concentration levels (low and high QC) were evaluated for validation of storage stability and freeze/thaw stability. Two concentration levels of PS and R15 (low and high QC) in blank rat plasma were prepared (n = 6), respectively. Samples in rats’ plasma were determined after storage at room temperature (25°C ± 1°C) for 30 min. Samples in rats’ plasma were under three freeze (−80°C)-thaw (25°C) cycles. Stock solution of PS and R15 were stored at 4°C for a week. All the samples mentioned above were processed by calibration curves with adequate QC samples diluted from newly prepared stock solution of PS and R15, followed by procedure of sample determination (see “Sample Preparation”), respectively.

[4] = test system: activated partial thromboplastin time (APTT); settings: in vitro, cited from earlier work
[5] = Stability of stock solution at 4°C for a week; assay type: physicochemical; settings: stock solution for 1 week, mean of n=6
Procedure: Preparation of Stock Solutions: Appropriate amounts of PS and R15 powders were accurately weighed and dissolved in deionized water to obtain stock solutions at 10 mg·mL^-1, respectively. This solution was stored in a refrigerator at 4 °C and replaced regularly.
as §3

[6] = nominal 0.7 μg·mL^-1, anti-FXa read-out at 405 nm
[7] = nominal 1.5 μg·mL^-1, anti-FXa read-out at 405 nm

- Measured concentration after storage, Mean ± SD [2, 6]: 0.72 ± 0.02 µg/mL
- RE (%) versus nominal concentration ([2]; nominal 0.7 μg·mL^-1, n = 6): 3.06%
- Measured concentration after storage, Mean ± SD [2, 7]: 1.54 ± 0.09 µg/mL
- RE (%) versus nominal concentration ([2]; nominal 1.5 μg·mL^-1, n = 6): 2.60%
- Measured concentration after storage, Mean ± SD [3, 6]: 0.70 ± 0.02 µg/mL
- RE (%) versus nominal concentration ([3]; nominal 0.7 μg·mL^-1, n = 6): 0.24%
- Measured concentration after storage, Mean ± SD [3, 7]: 1.63 ± 0.09 µg/mL
- RE (%) versus nominal concentration ([3]; nominal 1.5 μg·mL^-1, n = 6): 8.57%
- Mean determined concentration, stability of stock solution ([5]; nominal 0.7 μg/mL): 0.74 µg/mL
- Mean determined concentration, stability of stock solution ([5]; nominal 1.5 μg/mL): 1.71 µg/mL
Compound: N=C(N)NCCC[C@H](NC(=O)[C@H](CCCNC(=N)N)NC(=O)[C@H](CCCNC(=N)N)NC(=O)[C@H](CCCNC(=N)N)NC(=O)[C@H](CCCNC(=N)N)NC(=O)[C@H](CCCNC(=N)N)NC(=O)[C@H](CCCNC(=N)N)NC(=O)[C@H](CCCNC(=N)N)NC(=O)[C@H](CCCNC(=N)N)NC(=O)[C@H](CCCNC(=N)N)NC(=O)[C@H](CCCNC(=N)N)NC(=O)[C@H](CCCNC(=N)N)NC(=O)[C@H](CCCNC(=N)N)NC(=O)[C@H](CCCNC(=N)N)NC(=O)[C@@H](N)CCCNC(=N)N)C(=O)O [R15]
- in vivo metabolism [1]: metabolized by metallocarboxypeptidases into R12, R13, and R14
- time within which degraded ([4]; supratherapeutic amount): ≤ 2 h
- effect of excess on APTT ([4]; supratherapeutic amounts): APTT normalizes
